## Yeast mating assay B: variants of the scFv Ab-14

Data: MIT Lincoln Laboratory AlphaSeq set, Li et al. 2023, doi:10.1038/s41467-023-39022-2, as distributed in FLAb.

Target peptide (SARS-CoV-2 spike, HR2 region): PDVDLGDISGINAS

Parent scFv Ab-14: VH joined to VL by a (GGGGS)3 linker. Changes lie in the heavy chain CDRs alone.
VH: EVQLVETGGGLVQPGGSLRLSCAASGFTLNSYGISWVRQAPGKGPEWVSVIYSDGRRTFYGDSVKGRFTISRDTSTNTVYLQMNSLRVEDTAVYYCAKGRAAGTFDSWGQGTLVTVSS
VL: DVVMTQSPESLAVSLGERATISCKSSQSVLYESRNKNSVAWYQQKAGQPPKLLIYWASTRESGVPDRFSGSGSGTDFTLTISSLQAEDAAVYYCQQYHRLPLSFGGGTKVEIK

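This is the validation round: designs drawn from the data on random variants, tested in the same kind of assay. Their group label is 14H_Ctrl (Ctrl: baseline library sampled from a position-specific scoring matrix, with some repeated check sequences). In AlphaSeq, yeast of one mating type display the scFv and yeast of the other type display the target. After mating in shaken culture at 30 °C for 16 h, diploids were selected and their barcode pairs sequenced. Read counts were normalised to the haploid input and turned into Kd by a linear fit to BCL2-family pairs of known affinity, for each replicate. Each pool was mated in six replicate cultures.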

The parent's heavy chain CDRs are GFTLNSYGIS, VIYSDGRRTFYGDSVK, GRAAGTFDS; each variant's own CDRs replace them letter for letter.
Numbers give log10(Kd / nM), so 0 is 1 nM and 3 is 1 µM. Smaller is tighter.
"nd" marks a missing value. The strain was present, yet no cells mated with the target were sequenced in that replicate, which points to weak or no binding.
The authors averaged sequences with at least three values out of six and counted those with two or fewer as poor binders.
Of ten entries with the parent sequence, four were seen in most replicates (averages 0.34 to 2.37), three in one and three in none, so single entries are noisy.
Values of this round are not directly comparable with the first-round values of the same sequences.
Nonspecific signal, from three strains lacking the peptide, appeared in 1% of pairings of all heavy chain designs, centred on 2.08 (5% of these signals below 0.84); values are not corrected for it. The control count says in how many pairings with the empty strains this scFv gave a signal, with their mean in brackets.

CDR-H1	CDR-H2	CDR-H3	log10 Kd (nM) by replicate	signal with controls
GFELNSYGIS	VIYSDGWRTFYGDSVK	GRAALTFDS	nd nd nd nd nd nd	0/18
GFTLNEYGIS	VIYADGRRTFYADSVK	GRAAGTFDV	-0.80 -0.88 -1.03 -1.19 -1.10 -0.76	0/18
GFTLNSYGVS	VIYSDGFRTFYGDSVK	GRAAGTFDS	nd nd nd nd 2.69 2.53	1/18 (2.16)
GFTLNSYGIS	VIYSDGKRTFYGDQVK	GKAAGTFDS	1.07 3.51 nd 1.57 1.86 1.99	0/18
GETLNSYGIS	VIYSDGRRKFYGDSVK	GRAAGTFDS	1.66 nd nd nd 1.11 nd	1/18 (1.07)
GFRINSYGIS	VIYSDGRRTAYGDSVK	GRAAGTFDL	nd 1.45 nd 1.31 1.79 nd	1/18 (1.11)
GFTLNSYGIS	VIYSDARRTSYADSVK	GRAAGWFDS	nd nd nd nd nd nd	0/18
GFTLNLYGIS	VIYSDGRRTFYGDSVK	GKAAGTFDS	nd nd nd nd nd nd	0/18
GFTLNSYGIS	VIYSDGRRTFYGDSVK	GRGAGTFKS	nd nd nd nd nd nd	0/18
GFTLNSYGIS	VIYSDGRRTFYNDSVK	GVAAGTFSS	nd nd nd nd nd nd	0/18
GFTLNSYGIS	VIYSDGSRTFYGDSVR	GRAAQTFDS	nd nd nd nd nd nd	0/18
DFTLNSYGIS	VIYSDGRRTFYGDEVK	GRLAGTFDS	0.96 0.44 2.11 0.76 1.35 2.51	0/18
GFTINSYGIS	VIYSWGRRTFYGDSVK	GRAAGTFDS	nd nd nd nd nd nd	0/18
GFTLNSYGIS	VIYSDGRRTEYGDAVK	GRAAGTFDS	nd 2.05 2.68 3.30 2.40 1.62	0/18
GFTLNSYGIS	VIYSDGVRTFYGDSVK	GRAYGTFDS	nd nd nd nd nd nd	0/18
GFTLNSYGIS	VIYSDGRRTAYSDSVK	GRAAATFDS	nd nd nd nd nd nd	0/18
GFPLNSYGIS	VIYSDGRRTFYGDSVK	GTAAGTKDS	nd nd nd nd nd nd	0/18
GTTLNSYGIS	VIYSDGRRTQYADSVK	GRAAVTFDS	nd nd nd nd nd nd	1/18 (1.77)
GTNMNSYGIS	VIYSDGRRTFYLDSVK	GRAAGTFDS	nd nd nd nd nd nd	0/18
GFTLESYGIS	VIYSDGRRTFYGDVVK	GREAGTFDS	nd nd nd nd nd nd	0/18
GFTLNSYGIS	VIYSDGRRTFYSDSVK	GRWAGSFHS	nd 2.37 nd nd nd nd	0/18
TFTLNMYGIS	VIYSDGRRTFYDDSVR	GRAAGTFDS	-0.36 -0.73 -0.07 -0.70 -0.36 -0.30	0/18
GFTLNNYGIS	VIYSDGRRTAYQDSVK	GKAAGTFPS	nd nd nd nd nd nd	0/18
GFTLNSYGIS	VIYSDGRRMFYGDCVK	GRAAQTFDS	nd nd nd nd nd nd	0/18
GFTLNEYGIS	VIYSDGRRTFYADEVK	GRAAGTFDS	-0.19 0.39 -0.06 -0.30 0.13 0.62	0/18
GFWLNSYGIS	VIYSDGRRTFYGDSVK	CTAAGTFDT	nd nd nd nd nd nd	0/18
GFTINSYGIS	VIYSDGRRVFYGYSVK	GYAAGTFDS	nd nd nd nd nd nd	0/18
GFTLNSYGIS	VIYSDGRRTFYGDSVK	HRNCGTFDS	nd nd nd nd nd nd	0/18
DFTLNSYGIS	VIYSDGRRTFYGDSVK	GNVACTFDS	nd nd nd nd nd nd	0/18
GFSLNSYGIS	VIYSDGRRTFYGDSVK	RRAAGTFDS	nd nd nd nd nd nd	0/18
GFTLNSYGIS	VIYSDGCRTFYGDSVK	GRAAGTFDS	1.37 nd 1.30 nd 0.77 1.37	0/18
GFTMNSYGIS	VIYSDGRRHFYGDSVK	GRAAGTFDS	nd nd nd nd nd nd	0/18
GFTLRSYGIS	VIYSDGRRTFYGDRVK	GRAAGTFDL	nd nd nd nd 1.30 nd	0/18
GFTLNEYGIS	VIYSDGRRTFYVDSFK	GRAAGEFTS	nd nd nd nd nd nd	1/18 (0.63)
GFTLNSYAIS	VIYSDGRRTFYSDSVR	GRAAGTFDS	nd nd nd nd nd nd	0/18
GFTLTSYGIS	VIYSDGKRVFYGDSVK	GRVAGAFDS	-0.37 -0.56 -1.07 -1.12 -0.45 -0.32	0/18
QFTLNSYGIS	VMYSDGRRTSYIDSVK	GRAPGTFDS	nd nd nd 1.90 nd 2.25	0/18
GFTLNSYGIS	VIYSDGRRTFYGDSVK	GKAAGTVDS	nd 0.86 0.92 0.66 1.46 nd	1/18 (2.31)
GFTLNQYGIS	VIYSDGRRTFYGDSVK	GWAAGTFDS	nd nd nd nd nd nd	0/18
GFSLNSYGIS	VIYSDGRRTMYGDSVK	GRAAGKFDS	nd nd nd nd nd 3.21	0/18
GFTLNSYGIH	VIYSDGRRTFYGDSVK	GRAAGTFDS	nd nd nd nd nd nd	2/18 (1.65)
GFTLNSYGIS	VIYRDGRRTFYGDSVK	DRVAGTFES	nd nd nd nd nd nd	0/18
QFTLNEYGIS	VIYSDGRRTFYGDSVK	GRAAGTFDS	1.81 1.96 1.11 nd nd nd	0/18
GFTLNSYGIS	VIYADGRRTFYGDSVK	GRAYGTFDS	nd nd nd nd nd nd	0/18
GFTLESYGIS	VIYSDGRRTFYGDKVK	GRAAWTFDS	nd nd nd nd nd nd	0/18
GFTINSYGIS	VIYSDGRRTFYADSVK	GRAEGTFDS	nd nd nd nd nd nd	0/18
GFNLNSYGIS	VIYSDGRRQFMGDSVK	GDAAGTFDS	nd 0.92 1.39 4.03 nd 1.41	0/18
GFTLNSYGIS	VIYSDGRRTFYGDSVK	GRAAGEFDS	nd nd nd nd nd nd	0/18
GFTLNSYGIS	VIYSDGRRTFYGDSVK	GRGAGTGDI	nd nd nd nd nd nd	0/18
GFTLLSYGIS	VIYSDGRRTFYGDSFK	GRAAGDFDS	nd nd nd nd nd nd	0/18
GFTLNSYGIS	VIYSDGRRTFYGDSVK	GRIAGCFDS	nd nd nd 1.20 nd nd	0/18

Picked from the list: the 5 lowest averages where every replicate gave a value.

{"CDR-H1": "GFTLNEYGIS", "CDR-H2": "VIYADGRRTFYADSVK", "CDR-H3": "GRAAGTFDV", "log10 Kd (nM) by replicate": "-0.80 -0.88 -1.03 -1.19 -1.10 -0.76", "signal with controls": "0/18"}
{"CDR-H1": "GFTLTSYGIS", "CDR-H2": "VIYSDGKRVFYGDSVK", "CDR-H3": "GRVAGAFDS", "log10 Kd (nM) by replicate": "-0.37 -0.56 -1.07 -1.12 -0.45 -0.32", "signal with controls": "0/18"}
{"CDR-H1": "TFTLNMYGIS", "CDR-H2": "VIYSDGRRTFYDDSVR", "CDR-H3": "GRAAGTFDS", "log10 Kd (nM) by replicate": "-0.36 -0.73 -0.07 -0.70 -0.36 -0.30", "signal with controls": "0/18"}
{"CDR-H1": "GFTLNEYGIS", "CDR-H2": "VIYSDGRRTFYADEVK", "CDR-H3": "GRAAGTFDS", "log10 Kd (nM) by replicate": "-0.19 0.39 -0.06 -0.30 0.13 0.62", "signal with controls": "0/18"}
{"CDR-H1": "DFTLNSYGIS", "CDR-H2": "VIYSDGRRTFYGDEVK", "CDR-H3": "GRLAGTFDS", "log10 Kd (nM) by replicate": "0.96 0.44 2.11 0.76 1.35 2.51", "signal with controls": "0/18"}